Biological target: Bcl-2 (Homo sapiens, UniProt P10415)
Assay: AlphaLISA competitive binding assay, Bcl-2
Set-up: purchased Sigma-Aldrich
Settings: His-tagged Bcl-2, biotin-tagged BIM peptide, 24 h incubation
Protocol: In order to evaluate the binding affinities of compound #55 for Bcl-2 family proteins, AlphaLISA competitive assay was performed at room temperature and reagents were diluted in a buffer containing 250 mM HEPES pH 7.5, 1 M NaCl, 1% BSA, and 0.05% Tween-20. Purified recombinant His-tagged Bcl-xL/Bcl-2/Bcl-w (Sigma-Aldrich, St. Louis, MO) were incubated with increasing concentrations of compound #55 and a fixed concentration of biotin-tagged Bad (for Bcl-xL) or BIM peptides (for Bcl-2 and Bcl-w) (AnaSpec, Fremont, CA) to a final volume of 40 µL in 96-well PCR plate. After 24 h incubation, 5 μL 6×His-Acceptor beads (final concentration 20 μg/mL) (PerkinElmer, Houston, TX) were added to each well and incubated for 1 h. Thereafter, 5 μL streptavidin-donor beads were added (final concentration 20 μg/mL) (PerkinElmer) to each well and incubated for 0.5 h. At the end of the incubation period, 17 μL of each sample was transferred in adjacent wells of 384-well proxy plate. The plate was scanned using Alpha program on Biotek's Synergy Neo2 multi-mode plate reader. The inhibition constant (Ki) was calculated using non-linear regression, one site, competitive binding, Fit Ki function on GraphPad Prism based on experimentally determined Kd for each protein/peptide pair.

Protein sequences, listed by entry. Tags and fused reporters are not part of them.
UniProt P10415, whole entry: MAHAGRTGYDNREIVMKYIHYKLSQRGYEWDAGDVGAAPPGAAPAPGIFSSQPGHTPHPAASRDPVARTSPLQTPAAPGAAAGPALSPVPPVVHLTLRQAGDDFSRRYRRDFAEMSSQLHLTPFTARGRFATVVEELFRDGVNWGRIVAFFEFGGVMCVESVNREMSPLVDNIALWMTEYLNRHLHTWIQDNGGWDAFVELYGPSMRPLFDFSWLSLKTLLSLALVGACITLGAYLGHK

**Q.** With `CC1(C)CCC(c2ccc(Cl)cc2)=C(CN2CCN(c3ccc(C(=O)NS(=O)(=O)c4ccc(N[C@H](CCN5CCOCC5)CSc5ccccc5)c(S(=O)(=O)C(F)(F)F)c4)cc3)CC2)C1` [ABT-263, navitoclax, reference compound] as the compound, how does the Ki read?
**A.** 194 pM

— patent US12118414B2, “BCL-2 proteins degraders for cancer treatment” (BioVentures, LLC, priority 2018, dated 2024)
